{"source": "patent US8008290B2", "about": "“Compounds” (priority 2009, dated 2011)", "biological_target": "T1, Human recombinant cathepsin K (Homo sapiens, UniProt P43235)", "T1 sequence (P43235 115-329)": "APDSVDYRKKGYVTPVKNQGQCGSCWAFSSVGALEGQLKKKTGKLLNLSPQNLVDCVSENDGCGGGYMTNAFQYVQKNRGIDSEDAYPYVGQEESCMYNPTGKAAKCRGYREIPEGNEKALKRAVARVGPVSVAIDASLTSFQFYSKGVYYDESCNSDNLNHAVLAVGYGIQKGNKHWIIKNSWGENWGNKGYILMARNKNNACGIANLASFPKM", "experiment": "In vitro cathepsin Ki inhibition measurement, cathepsin K", "format": "biochemical", "settings": "relative to prior art compound (38)", "experimental": "Stock solutions of substrate or inhibitor were made up to 10 mM in 100% dimethylsulfoxide (DMSO) (Rathburns, Glasgow, U.K.) and diluted as appropriately required. In all cases the DMSO concentration in the assays was maintained at less than 1% (vol./vol.). The equilibrium inhibition constants (Ki^ss) for each compound were measured under steady-state conditions monitoring enzyme activity as a function of inhibitor concentration. […] B. […] The apparent inhibition constant (Ki) for each compound was determined on the basis that inhibition was reversible and occurred by a pure-competitive mechanism. […] F. Trends Biochem. […] Morrison, J. F. Biochim. Biophys. […] Curves were fitted by non-linear regression analysis (Prism) using a fixed value for the enzyme concentration."}
{"smiles": "O=C(N[C@H](C(=O)N1CC[C@H]2OCC(=O)[C@H]21)C1CCCCC1)c1ccccc1", "note": "[Compound 1]", "values": [{"measurement": "fold improvement in in vitro potency against human cathepsin K", "result": "greater than 13 fold"}]}
